Target: Glucagon receptor (Homo sapiens, UniProt P47871)
Assay: Tested for its ability to inhibit cAMP production in human glucagon receptor expressed CHO cells
Format: functional, cell-based

Protein sequences, listed by entry. Tags and fused reporters are not part of them.
UniProt P47871, whole entry: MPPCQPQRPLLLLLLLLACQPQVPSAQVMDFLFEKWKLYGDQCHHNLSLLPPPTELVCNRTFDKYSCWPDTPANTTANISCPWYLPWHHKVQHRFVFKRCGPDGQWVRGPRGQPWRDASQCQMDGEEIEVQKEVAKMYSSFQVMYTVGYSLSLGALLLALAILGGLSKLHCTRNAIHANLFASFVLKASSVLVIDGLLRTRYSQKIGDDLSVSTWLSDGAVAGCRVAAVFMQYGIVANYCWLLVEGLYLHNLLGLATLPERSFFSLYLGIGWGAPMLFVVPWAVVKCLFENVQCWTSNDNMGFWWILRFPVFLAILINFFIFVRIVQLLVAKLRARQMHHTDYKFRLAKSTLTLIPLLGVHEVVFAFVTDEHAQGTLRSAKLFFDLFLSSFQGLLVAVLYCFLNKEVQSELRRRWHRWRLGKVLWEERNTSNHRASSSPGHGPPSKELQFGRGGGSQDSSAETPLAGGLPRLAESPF

IC50: 65 nM
SMILES: CCCc1c(C(C)C)nc(C(C)C)c([C@@H](C)O)c1-c1ccc(F)cc1
